The source made the active and inactive calls. The rule behind the calls is not given here.
Legend:
[1] = target: Protein odd-skipped-related 1 (Homo sapiens) (UniProt Q8TAX0); experiment: Inhibition of T7 bacteriophage fused human OSR1 at 10 uM by KINOMEscan analysis relative to control
[2] = target: Wee1-like protein kinase 2 (Homo sapiens) (UniProt P0C1S8); experiment: Inhibition of T7 bacteriophage fused human WEE2 at 10 uM by KINOMEscan analysis relative to control
[3] = target: Ribosomal protein S6 kinase beta-1 (Homo sapiens) (UniProt P23443); experiment: Inhibition of T7 bacteriophage fused human S6K1 at 10 uM by KINOMEscan analysis relative to control
[4] = target: Serine/threonine-protein kinase TAO2 (Homo sapiens) (UniProt Q9UL54); experiment: Inhibition of T7 bacteriophage fused human TAOK2 at 10 uM by KINOMEscan analysis relative to control
[5] = target: NT-3 growth factor receptor (Homo sapiens) (UniProt Q16288); experiment: Inhibition of T7 bacteriophage fused human TRKC at 10 uM by KINOMEscan analysis relative to control
[6] = target: Serine/threonine-protein kinase 32C (Homo sapiens) (UniProt Q86UX6); experiment: Inhibition of T7 bacteriophage fused human YANK3 at 10 uM by KINOMEscan analysis relative to control
[7] = target: SNF-related serine/threonine-protein kinase (Homo sapiens) (UniProt Q9NRH2); experiment: Inhibition of T7 bacteriophage fused human SNRK at 10 uM by KINOMEscan analysis relative to control
[8] = target: STE20/SPS1-related proline-alanine-rich protein kinase (Homo sapiens) (UniProt Q9UEW8); experiment: Inhibition of T7 bacteriophage fused human STK39 at 10 uM by KINOMEscan analysis relative to control
[9] = target: Non-receptor tyrosine-protein kinase TNK1 (Homo sapiens) (UniProt Q13470); experiment: Inhibition of T7 bacteriophage fused human TNK1 at 10 uM by KINOMEscan analysis relative to control
[10] = target: Non-receptor tyrosine-protein kinase TYK2 (Homo sapiens) (UniProt P29597); experiment: Inhibition of T7 bacteriophage fused human TYK2 JH2 pseudokinase domain at 10 uM by KINOMEscan analysis relative to control
[11] = target: Serine/threonine-protein kinase 33 (Homo sapiens) (UniProt Q9BYT3); experiment: Inhibition of T7 bacteriophage fused human STK33 at 10 uM by KINOMEscan analysis relative to control
[12] = target: Transient receptor potential cation channel subfamily M member 6 (Homo sapiens) (UniProt Q9BX84); experiment: Inhibition of T7 bacteriophage fused human TRPM6 at 10 uM by KINOMEscan analysis relative to control
[13] = target: Serine/threonine-protein kinase TAO3 (Homo sapiens) (UniProt Q9H2K8); experiment: Inhibition of T7 bacteriophage fused human TAOK3 at 10 uM by KINOMEscan analysis relative to control
[14] = target: TGF-beta receptor type-1 (Homo sapiens) (UniProt P36897); experiment: Inhibition of T7 bacteriophage fused human TGFBR1 at 10 uM by KINOMEscan analysis relative to control
[15] = target: Serine/threonine-protein kinase VRK2 (Homo sapiens) (UniProt Q86Y07); experiment: Inhibition of T7 bacteriophage fused human VRK2 at 10 uM by KINOMEscan analysis relative to control
[16] = target: Serine/threonine-protein kinase 35 (Homo sapiens) (UniProt Q8TDR2); experiment: Inhibition of T7 bacteriophage fused human STK35 at 10 uM by KINOMEscan analysis relative to control
[17] = target: Tyrosine-protein kinase Yes (Homo sapiens) (UniProt P07947); experiment: Inhibition of T7 bacteriophage fused human YES at 10 uM by KINOMEscan analysis relative to control
[18] = target: Mitogen-activated protein kinase kinase kinase 7 (Homo sapiens) (UniProt O43318); experiment: Inhibition of T7 bacteriophage fused human TAK1 at 10 uM by KINOMEscan analysis relative to control
[19] = target: Ribosomal protein S6 kinase alpha-2 (Homo sapiens) (UniProt Q15349); experiment: Inhibition of T7 bacteriophage fused human N-terminal RSK3 Kinase domain-1 at 10 uM by KINOMEscan analysis relative to control
[20] = target: Ribosomal protein S6 kinase alpha-6 (Homo sapiens) (UniProt Q9UK32); experiment: Inhibition of T7 bacteriophage fused human N-terminal RSK4 Kinase domain-1 at 10 uM by KINOMEscan analysis relative to control
[21] = target: Serine/threonine-protein kinase 32A (Homo sapiens) (UniProt Q8WU08); experiment: Inhibition of T7 bacteriophage fused human YANK1 at 10 uM by KINOMEscan analysis relative to control
[22] = target: Vascular endothelial growth factor receptor 2 (Homo sapiens) (UniProt P35968); experiment: Inhibition of T7 bacteriophage fused human VEGFR2 at 10 uM by KINOMEscan analysis relative to control
[23] = target: Serine/threonine-protein kinase Sgk3 (Homo sapiens) (UniProt Q96BR1); experiment: Inhibition of T7 bacteriophage fused human SGK3 at 10 uM by KINOMEscan analysis relative to control
[24] = tested on: Leucine-rich repeat serine/threonine-protein kinase 2 (Homo sapiens), Q5S007 [A2016T]; experiment: Inhibition of drug-resistant GFP-tagged LRRK2 A2016T mutant phosphorylation at Ser935 residue (unknown origin) transfected in HEK293 cells upto 3 uM incubated for 90 mins by immunoblot analysis; format: cell-based
Summary of the method: (§1)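 HEK293 cells stably expressing GFP-LRRK2 variants, grown in DMEM with 10% FBS, 2 mM glutamine and penicillin/streptomycin. Compound added from DMSO stock (final DMSO ≤1%) at increasing concentrations for 90 min, DMSO control. Cells were PBS-washed and lysed in Triton X-100 lysis buffer. Lysates were run on 8% SDS-PAGE and immunoblotted with rabbit monoclonals against pSer910, pSer935 and total LRRK2.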

The chains behind the UniProt entries cited, without tags or fusion partners. Where a name states a change or a piece, a line headed by the entry shows the natural chain unless it says otherwise.
UniProt P23443: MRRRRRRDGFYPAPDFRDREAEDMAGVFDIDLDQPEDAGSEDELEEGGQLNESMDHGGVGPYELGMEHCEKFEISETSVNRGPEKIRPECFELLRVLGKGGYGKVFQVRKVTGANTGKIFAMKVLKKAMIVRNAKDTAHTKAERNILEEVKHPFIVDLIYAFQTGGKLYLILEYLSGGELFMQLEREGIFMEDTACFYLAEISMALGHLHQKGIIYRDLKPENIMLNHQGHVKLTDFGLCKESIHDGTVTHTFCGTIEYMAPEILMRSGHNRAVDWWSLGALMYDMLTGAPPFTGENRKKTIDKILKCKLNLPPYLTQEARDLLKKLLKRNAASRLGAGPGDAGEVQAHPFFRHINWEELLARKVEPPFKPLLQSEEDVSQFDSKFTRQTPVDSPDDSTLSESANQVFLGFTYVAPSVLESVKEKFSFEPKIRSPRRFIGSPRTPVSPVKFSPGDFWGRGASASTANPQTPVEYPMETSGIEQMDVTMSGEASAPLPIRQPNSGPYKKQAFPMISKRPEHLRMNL
UniProt Q16288, whole entry, looked up: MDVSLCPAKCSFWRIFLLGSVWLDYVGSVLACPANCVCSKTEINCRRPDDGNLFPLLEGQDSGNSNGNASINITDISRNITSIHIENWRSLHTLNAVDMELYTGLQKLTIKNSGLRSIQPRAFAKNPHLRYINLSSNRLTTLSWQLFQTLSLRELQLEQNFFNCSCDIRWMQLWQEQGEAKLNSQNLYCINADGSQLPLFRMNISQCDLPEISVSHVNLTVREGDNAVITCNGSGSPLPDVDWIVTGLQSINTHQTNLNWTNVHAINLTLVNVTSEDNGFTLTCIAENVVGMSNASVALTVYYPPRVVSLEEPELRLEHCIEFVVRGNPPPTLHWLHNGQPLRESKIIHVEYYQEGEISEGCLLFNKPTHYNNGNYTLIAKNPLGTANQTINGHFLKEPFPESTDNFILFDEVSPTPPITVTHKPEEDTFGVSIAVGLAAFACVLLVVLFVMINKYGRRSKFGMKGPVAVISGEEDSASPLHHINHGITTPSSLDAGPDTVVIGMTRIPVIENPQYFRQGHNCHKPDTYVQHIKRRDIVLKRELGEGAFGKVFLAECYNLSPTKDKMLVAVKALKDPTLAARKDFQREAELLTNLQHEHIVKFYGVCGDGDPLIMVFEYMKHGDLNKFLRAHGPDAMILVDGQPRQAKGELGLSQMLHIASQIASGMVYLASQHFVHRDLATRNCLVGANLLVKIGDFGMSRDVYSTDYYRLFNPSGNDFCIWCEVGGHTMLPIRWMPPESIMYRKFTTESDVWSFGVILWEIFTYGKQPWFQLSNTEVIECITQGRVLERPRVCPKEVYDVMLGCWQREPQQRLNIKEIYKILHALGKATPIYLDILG
UniProt Q9BX84: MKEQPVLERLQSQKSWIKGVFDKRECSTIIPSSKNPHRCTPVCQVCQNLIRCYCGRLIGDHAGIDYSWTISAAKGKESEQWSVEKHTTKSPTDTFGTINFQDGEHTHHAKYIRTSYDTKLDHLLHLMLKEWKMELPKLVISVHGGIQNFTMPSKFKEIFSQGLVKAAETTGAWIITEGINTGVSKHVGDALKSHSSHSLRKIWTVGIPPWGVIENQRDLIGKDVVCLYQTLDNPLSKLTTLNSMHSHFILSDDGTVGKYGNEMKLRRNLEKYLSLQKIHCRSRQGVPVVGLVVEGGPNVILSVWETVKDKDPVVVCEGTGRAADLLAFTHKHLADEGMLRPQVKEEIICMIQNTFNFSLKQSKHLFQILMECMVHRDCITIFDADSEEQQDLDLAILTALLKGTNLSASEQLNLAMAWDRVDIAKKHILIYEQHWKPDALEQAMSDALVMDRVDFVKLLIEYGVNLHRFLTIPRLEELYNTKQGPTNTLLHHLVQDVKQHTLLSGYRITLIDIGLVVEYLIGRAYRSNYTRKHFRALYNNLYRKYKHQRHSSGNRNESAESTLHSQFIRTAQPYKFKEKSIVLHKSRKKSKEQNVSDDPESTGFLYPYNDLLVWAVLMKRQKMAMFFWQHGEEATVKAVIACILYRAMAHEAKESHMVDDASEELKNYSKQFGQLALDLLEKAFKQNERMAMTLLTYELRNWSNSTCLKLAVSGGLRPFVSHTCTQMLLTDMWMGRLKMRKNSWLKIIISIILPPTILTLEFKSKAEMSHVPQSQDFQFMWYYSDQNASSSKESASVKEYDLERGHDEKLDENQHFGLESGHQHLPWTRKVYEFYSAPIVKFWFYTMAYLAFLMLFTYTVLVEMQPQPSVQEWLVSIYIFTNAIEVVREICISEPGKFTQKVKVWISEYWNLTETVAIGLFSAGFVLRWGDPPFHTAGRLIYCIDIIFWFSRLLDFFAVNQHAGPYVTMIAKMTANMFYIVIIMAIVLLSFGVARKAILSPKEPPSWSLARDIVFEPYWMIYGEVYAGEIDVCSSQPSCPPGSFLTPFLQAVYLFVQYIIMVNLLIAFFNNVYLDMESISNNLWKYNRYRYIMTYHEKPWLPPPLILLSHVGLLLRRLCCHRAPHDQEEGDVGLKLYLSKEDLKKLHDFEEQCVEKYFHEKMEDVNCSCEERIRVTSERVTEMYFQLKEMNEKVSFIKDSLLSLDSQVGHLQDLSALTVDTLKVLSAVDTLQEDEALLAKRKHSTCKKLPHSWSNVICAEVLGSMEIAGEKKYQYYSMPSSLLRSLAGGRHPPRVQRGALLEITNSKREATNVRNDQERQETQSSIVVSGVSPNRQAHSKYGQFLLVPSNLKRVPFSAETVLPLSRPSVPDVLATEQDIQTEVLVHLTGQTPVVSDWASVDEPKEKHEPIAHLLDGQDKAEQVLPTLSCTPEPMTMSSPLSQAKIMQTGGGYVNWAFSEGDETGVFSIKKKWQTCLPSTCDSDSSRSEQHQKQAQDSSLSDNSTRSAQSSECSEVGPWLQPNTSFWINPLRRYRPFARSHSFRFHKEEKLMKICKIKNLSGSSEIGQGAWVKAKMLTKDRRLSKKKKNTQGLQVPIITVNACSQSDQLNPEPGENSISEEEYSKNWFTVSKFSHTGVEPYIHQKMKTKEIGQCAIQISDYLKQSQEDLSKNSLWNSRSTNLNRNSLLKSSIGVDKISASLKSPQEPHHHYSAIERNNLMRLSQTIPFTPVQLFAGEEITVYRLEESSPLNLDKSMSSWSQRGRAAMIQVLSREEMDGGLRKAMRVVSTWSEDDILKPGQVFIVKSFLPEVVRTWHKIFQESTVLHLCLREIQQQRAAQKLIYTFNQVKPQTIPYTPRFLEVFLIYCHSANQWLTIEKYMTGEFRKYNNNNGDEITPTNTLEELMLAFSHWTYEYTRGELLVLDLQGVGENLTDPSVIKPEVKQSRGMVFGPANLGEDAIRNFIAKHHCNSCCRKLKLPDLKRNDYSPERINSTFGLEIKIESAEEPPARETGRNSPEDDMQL
UniProt Q9H2K8: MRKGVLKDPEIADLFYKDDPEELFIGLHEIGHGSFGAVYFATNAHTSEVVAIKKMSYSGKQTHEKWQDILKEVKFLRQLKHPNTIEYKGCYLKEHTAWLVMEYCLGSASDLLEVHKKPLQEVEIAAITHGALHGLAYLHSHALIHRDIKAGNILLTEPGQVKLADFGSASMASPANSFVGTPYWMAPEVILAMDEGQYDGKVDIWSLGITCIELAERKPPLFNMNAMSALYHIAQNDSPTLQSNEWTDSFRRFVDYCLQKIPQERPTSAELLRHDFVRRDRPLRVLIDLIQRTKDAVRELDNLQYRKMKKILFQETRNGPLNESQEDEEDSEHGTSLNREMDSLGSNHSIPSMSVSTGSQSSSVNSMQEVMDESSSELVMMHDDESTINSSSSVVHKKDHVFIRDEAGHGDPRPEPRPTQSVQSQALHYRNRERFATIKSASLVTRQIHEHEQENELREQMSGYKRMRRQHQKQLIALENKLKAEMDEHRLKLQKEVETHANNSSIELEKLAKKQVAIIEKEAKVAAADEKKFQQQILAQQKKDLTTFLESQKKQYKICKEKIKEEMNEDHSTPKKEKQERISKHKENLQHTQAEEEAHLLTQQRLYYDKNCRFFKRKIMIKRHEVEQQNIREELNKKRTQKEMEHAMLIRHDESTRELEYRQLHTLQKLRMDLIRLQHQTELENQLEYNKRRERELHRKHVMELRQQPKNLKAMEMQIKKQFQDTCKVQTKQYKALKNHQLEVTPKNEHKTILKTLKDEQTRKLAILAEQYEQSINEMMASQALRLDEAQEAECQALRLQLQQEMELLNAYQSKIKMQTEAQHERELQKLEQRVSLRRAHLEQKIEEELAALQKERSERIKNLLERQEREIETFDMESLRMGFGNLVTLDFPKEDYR
UniProt O43318: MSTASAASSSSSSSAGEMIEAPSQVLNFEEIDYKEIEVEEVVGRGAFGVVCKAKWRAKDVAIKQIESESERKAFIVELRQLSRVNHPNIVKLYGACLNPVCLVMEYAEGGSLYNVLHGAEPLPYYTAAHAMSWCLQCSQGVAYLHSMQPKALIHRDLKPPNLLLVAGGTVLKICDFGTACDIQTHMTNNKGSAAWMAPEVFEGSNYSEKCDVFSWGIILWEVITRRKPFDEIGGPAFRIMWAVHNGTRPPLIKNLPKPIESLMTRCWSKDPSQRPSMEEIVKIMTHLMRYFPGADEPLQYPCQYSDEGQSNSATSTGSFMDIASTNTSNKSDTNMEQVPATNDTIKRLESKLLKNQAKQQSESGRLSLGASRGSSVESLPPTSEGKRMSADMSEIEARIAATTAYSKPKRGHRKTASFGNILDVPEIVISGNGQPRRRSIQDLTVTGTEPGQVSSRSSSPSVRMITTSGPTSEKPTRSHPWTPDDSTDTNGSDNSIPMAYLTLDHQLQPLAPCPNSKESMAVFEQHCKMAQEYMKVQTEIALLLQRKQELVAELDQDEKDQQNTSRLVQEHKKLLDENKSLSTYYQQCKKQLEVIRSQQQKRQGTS
UniProt Q6PHR2: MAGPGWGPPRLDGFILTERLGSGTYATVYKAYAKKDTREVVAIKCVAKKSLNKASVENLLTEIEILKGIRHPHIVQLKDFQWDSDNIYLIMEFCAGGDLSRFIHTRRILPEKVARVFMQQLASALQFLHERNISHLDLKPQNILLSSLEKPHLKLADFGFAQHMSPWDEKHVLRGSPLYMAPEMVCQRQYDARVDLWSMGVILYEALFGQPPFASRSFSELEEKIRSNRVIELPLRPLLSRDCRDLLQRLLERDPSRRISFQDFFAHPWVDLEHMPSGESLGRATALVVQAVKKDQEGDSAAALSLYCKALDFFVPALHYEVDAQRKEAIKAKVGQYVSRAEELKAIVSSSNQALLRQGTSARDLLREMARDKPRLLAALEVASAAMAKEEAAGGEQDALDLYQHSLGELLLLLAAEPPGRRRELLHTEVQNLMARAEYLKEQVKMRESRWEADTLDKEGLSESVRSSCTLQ
UniProt P37173, whole entry: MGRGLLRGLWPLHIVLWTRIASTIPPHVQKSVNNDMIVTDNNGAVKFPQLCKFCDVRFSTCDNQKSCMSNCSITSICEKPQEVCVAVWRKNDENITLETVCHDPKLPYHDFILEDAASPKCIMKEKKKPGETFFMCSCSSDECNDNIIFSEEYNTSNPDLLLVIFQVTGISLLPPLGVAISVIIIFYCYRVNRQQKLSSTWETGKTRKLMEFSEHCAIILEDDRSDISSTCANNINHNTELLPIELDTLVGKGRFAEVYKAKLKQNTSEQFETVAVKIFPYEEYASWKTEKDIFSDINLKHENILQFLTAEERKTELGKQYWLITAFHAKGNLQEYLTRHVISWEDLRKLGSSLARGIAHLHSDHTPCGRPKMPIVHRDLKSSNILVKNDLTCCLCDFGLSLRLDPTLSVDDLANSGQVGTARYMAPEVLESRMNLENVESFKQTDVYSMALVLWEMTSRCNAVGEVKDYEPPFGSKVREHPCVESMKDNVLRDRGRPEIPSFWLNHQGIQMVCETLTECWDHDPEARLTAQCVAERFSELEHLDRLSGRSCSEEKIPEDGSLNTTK
UniProt P43403: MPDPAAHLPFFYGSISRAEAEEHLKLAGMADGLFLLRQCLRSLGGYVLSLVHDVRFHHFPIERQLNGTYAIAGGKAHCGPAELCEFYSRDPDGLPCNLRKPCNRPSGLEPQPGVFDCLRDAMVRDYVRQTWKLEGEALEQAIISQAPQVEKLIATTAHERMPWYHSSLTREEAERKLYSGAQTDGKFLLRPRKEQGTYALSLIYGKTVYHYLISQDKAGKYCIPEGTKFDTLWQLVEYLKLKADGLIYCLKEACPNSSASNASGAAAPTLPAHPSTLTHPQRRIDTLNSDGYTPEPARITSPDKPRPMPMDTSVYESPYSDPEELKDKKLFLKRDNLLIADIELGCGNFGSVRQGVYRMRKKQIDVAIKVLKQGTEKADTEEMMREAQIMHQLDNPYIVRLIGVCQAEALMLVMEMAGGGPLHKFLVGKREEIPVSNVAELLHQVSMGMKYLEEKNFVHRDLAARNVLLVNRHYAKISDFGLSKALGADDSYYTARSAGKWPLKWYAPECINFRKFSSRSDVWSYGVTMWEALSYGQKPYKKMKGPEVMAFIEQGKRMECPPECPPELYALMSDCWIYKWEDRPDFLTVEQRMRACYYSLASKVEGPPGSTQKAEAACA

[25] = target: Serine/threonine-protein kinase ULK3 (Homo sapiens) (UniProt Q6PHR2); experiment: Inhibition of T7 bacteriophage fused human ULK3 at 10 uM by KINOMEscan analysis relative to control
[26] = target: TGF-beta receptor type-2 (Homo sapiens) (UniProt P37173); experiment: Inhibition of T7 bacteriophage fused human TGFBR2 at 10 uM by KINOMEscan analysis relative to control
[27] = target: Tyrosine-protein kinase ZAP-70 (Homo sapiens) (UniProt P43403); experiment: Inhibition of T7 bacteriophage fused human ZAP70 at 10 uM by KINOMEscan analysis relative to control
[28] = target: Tyrosine-protein kinase Srms (Homo sapiens) (UniProt Q9H3Y6); experiment: Inhibition of T7 bacteriophage fused human SRMS at 10 uM by KINOMEscan analysis relative to control
[29] = target: Tyrosine-protein kinase receptor TYRO3 (Homo sapiens) (UniProt Q06418); experiment: Inhibition of T7 bacteriophage fused human TYRO3 at 10 uM by KINOMEscan analysis relative to control
[30] = tested on: Leucine-rich repeat serine/threonine-protein kinase 2 (Homo sapiens), Q5S007 [A2016T]; experiment: Inhibition of drug-resistant GFP-tagged LRRK2 A2016T mutant phosphorylation at Ser910 residue (unknown origin) transfected in HEK293 cells upto 3 uM incubated for 90 mins by immunoblot analysis; format: cell-based; summary of the method: as §1
[31] = target: Serine/threonine-protein kinase ULK1 (Homo sapiens) (UniProt O75385); experiment: Inhibition of T7 bacteriophage fused human ULK1 at 10 uM by KINOMEscan analysis relative to control
[32] = target: Serine/threonine-protein kinase 32B (Homo sapiens) (UniProt Q9NY57); experiment: Inhibition of T7 bacteriophage fused human YANK2 at 10 uM by KINOMEscan analysis relative to control

SMILES: COc1cc(C(=O)N2CCC(N3CCN(C)CC3)CC2)ccc1Nc1ncc2c(n1)N1CCc3cccc(c31)C(=O)N2C
- inhibition [1]: 100%
- inhibition [2]: 100%
- inhibition [3]: 100%
- inhibition [4]: 100%
- inhibition [5]: 100%
- inhibition [6]: 100%
- inhibition [7]: 100%
- inhibition [8]: 100%
- inhibition [9]: 5%
- inhibition [10]: 100%
- inhibition [11]: 2.4%
- inhibition [12]: 100%
- inhibition [13]: 100%
- inhibition [14]: 100%
- inhibition [15]: 100%
- inhibition [16]: 100%
- inhibition [17]: 100%
- inhibition [18]: 100%
- inhibition [19]: 100%
- inhibition [20]: 100%
- inhibition [21]: 100%
- inhibition [22]: 100%
- inhibition [23]: 100%
- inhibition [24]: inactive
- inhibition [25]: 100%
- inhibition [26]: 100%
- inhibition [27]: 100%
- inhibition [28]: 100%
- inhibition [29]: 100%
- inhibition [30]: inactive
- inhibition [31]: 100%
- inhibition [32]: 100%
